Earlier results in patent US4902505A, “Chimeric peptides for neuropeptide delivery through the blood-brain barrier” (Alkermes, priority 1988, dated 1990).

Test system: blood-brain barrier
Conditions: general statement, no test described; cited from earlier work

Substance: insulin
- transport through the blood-brain barrier: is transported
